Laboratory results taken from patent publication US7652067B2, “Aqueous compositions containing monoester salts” (Millenium Specialty Chemicals, Inc., priority 2006, dated 2010).

Test: Control experiment: stirring hydrophobic compound with pure water
Conditions: 18 g in water (about 876 g)

undissolved compound recovered after settling: 17.5 g
SMILES: C=C(C)[C@H]1CC=C(C)CC1 [d-limonene]
